Literature values, collected in patent US11185540B2, “Extended release compositions of opioid antagonists and phosphodiesterase 5 inhibitors” (Pardon My Scotch, LLC, priority 2017, dated 2021).

Chains of the proteins cited; added tags and fusions are not shown.
UniProt P35372, whole entry, species assumed: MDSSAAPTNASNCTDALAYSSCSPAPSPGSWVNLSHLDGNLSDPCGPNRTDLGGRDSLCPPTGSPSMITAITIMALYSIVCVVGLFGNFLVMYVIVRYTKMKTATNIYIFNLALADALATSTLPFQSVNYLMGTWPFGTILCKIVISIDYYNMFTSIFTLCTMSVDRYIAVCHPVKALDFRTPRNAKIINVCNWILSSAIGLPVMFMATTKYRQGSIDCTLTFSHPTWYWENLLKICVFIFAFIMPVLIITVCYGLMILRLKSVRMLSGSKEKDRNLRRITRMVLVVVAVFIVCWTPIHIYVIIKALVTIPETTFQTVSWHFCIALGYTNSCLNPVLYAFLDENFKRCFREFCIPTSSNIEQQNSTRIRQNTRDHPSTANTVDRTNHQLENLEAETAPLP

Biological target: μ-opioid receptor (Homo sapiens, UniProt P35372)
Conditions: reported

In the case of Oc1ccc2c3c1O[C@H]1[C@H](O)CC[C@@]4(O)[C@@H](C2)N(CC2CC2)CC[C@]314 [Batch 6β-naltrexol, 6β-naltrexol], the “μ receptor affinity relative to naltrexone” value is given as “half of that of naltrexone”.
